Key:
[1] = system: human periodontal ligament (HPDL) cells; assay: ALP inducing activity of HPDL cells on cell culture system; type: cell-based; conditions: 96 h
Text: Human periodontal ligament (HPDL) cells were obtained according to the method of Somerman et al., (1988) from healthy premolars which were extracted from the patients for orthodontic reasons. The cells were precultured for 4-6 passages with a-MEM medium to establish the primary cell line. The cells were maintained in the alpha modification of Eagle's medium (α-MEM; Life Technologies, Grand Island, N.Y., USA) containing 10% fetal bovine serum (FBS; Asahi Technoglass, Chiba, Japan) and 1% antibiotics (100 U/ml of Penicillin-G and 100 μg/ml of Streptomycin sulfate; Gibco BRL, Grand Island, N.Y., USA) at 37° C. in a humidified 5% CO2 atmosphere. […]
HPDL cells were distributed in 96-well plates at a density of approximately 5×10^5 cells per a well and incubated for 24 h. […] After 96 additional hours of incubation, the cells were washed once with PBS, and ALP activity was determined after a 10 min incubation at 37° C. in 10 mM p-nitrophenylphosphate (substrate) in 100 mM 2-amino-2-methyl-1,3-propanediol-HCl buffer (pH 10.0) containing 5 mM MgCl2. After adding 0.2 M NaOH, which stopped the reaction, the absorbance at 405 nm was read on a plate reader. […]
(§1) HPDL cells of approximately 5×10^5 cells per well were distributed in 96-well plates and incubated for 24 h. […] After 96 additional hours of incubation, ALP activity was determined using p-nitrophenylphosphate as a substrate. […]

[2] = system: ST2 cells; assay: ALP inducing activity of ST2 cells on cell culture system; type: cell-based, mouse
Text: Human periodontal ligament (HPDL) cells were obtained according to the method of Somerman et al., (1988) from healthy premolars which were extracted from the patients for orthodontic reasons. The cells were precultured for 4-6 passages with a-MEM medium to establish the primary cell line. The cells were maintained in the alpha modification of Eagle's medium (α-MEM; Life Technologies, Grand Island, N.Y., USA) containing 10% fetal bovine serum (FBS; Asahi Technoglass, Chiba, Japan) and 1% antibiotics (100 U/ml of Penicillin-G and 100 μg/ml of Streptomycin sulfate; Gibco BRL, Grand Island, N.Y., USA) at 37° C. in a humidified 5% CO2 atmosphere. The ST2 cells (Riken Cell Bank, Tsukuba, Japan), an osteoblast-like mouse bone marrow stromal cell line, were cultured under the same conditions.
as §1
The ALP inducing activities of synthetic peptides using the cell culture of HPDL cells and ST2 cells were examined. […] The ALP activity was determined after 10 min incubation at 37° C. and the absorbance at 405 nm was read using a plate reader, after adding 0.2 M NaOH to stop the reaction. […]

B1: BMP-2: recombinant growth factor, control (protein, UniProt P12643 283-396, looked up)
Bone morphogenetic protein 2: QAKHKQRKRLKSSCKRHPLYVDFSDVGWNDWIVAPPGYHAFYCHGECPFPLADHLNSTNHAIVQTLVNSVNSKIPKACCVPTELSAISMLYLDENEKVVLKNYQDMVVEGCGCR
- ALP activity of HPDL cells (porcine sheath proteins and synthetic peptides) ([1]; 50 μg/ml protein or peptide, TGF-β1 50 ng/ml, BMP-2 500 ng/ml, 10 nM 1α-25dihydroxy-Vitamin D3): reduced the ALP activity of HPDL cells
- ALP inducing activity of HPDL cells (Example 4) ([1]; peptides 50 μg/mL, TGF-β1 1 ng/mL, BMP-2 1 μg/mL, 10 nM 1α-25dihydroxy-vitamin D3): not influenced
- ALP activity of ST2 cells (porcine sheath proteins and synthetic peptides) ([2]; 50 μg/ml protein or peptide, TGF-β1 50 ng/ml, BMP-2 500 ng/ml): enhanced
- ALP activity of ST2 cells (Example 4) ([2]; peptides 25 or 50 μg/mL, BMP-2 1 μg/mL, TGF-β1 0.5 or 1 ng/mL): enhanced
